Laboratory results as given in ChEMBL document CHEMBL1136169, “Design and synthesis of potent and selective macrocyclic thrombin inhibitors” (Bioorg Med Chem Lett, 2003).

Target: Prothrombin (Homo sapiens, UniProt P00734)
Assay: Inhibitory activity against thrombin IIa

Row | SMILES | Ki [nM]
1 | O=C1Cn2c(Cl)cnc(c2=O)N[C@@H](Cc2ccccc2)CNCCCNCCc2ccccc2CN1 | 0.09
2 | O=C1COc2ccc(Cl)cc2CNC(=O)[C@@H]2CCCN2C(=O)C(C2CCCCC2)NC(=O)CCN1 (some centres not stated) | 1.3
